Yeast mating assay 1: variants of the scFv Ab-14

All variants were tested on one target, the spike HR2 peptide PDVDLGDISGINAS (SARS-CoV-2).

The variants keep the light chain, the linker and the frameworks of Ab-14 (scFv order VH, a 15-residue (Gly4Ser)3 linker, VL).
VH: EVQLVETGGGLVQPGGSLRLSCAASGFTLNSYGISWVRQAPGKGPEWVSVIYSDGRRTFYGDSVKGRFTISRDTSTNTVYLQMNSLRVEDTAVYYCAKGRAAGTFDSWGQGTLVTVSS
VL: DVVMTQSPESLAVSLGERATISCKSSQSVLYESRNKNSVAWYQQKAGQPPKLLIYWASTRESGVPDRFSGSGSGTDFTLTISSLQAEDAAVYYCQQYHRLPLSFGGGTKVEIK

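The parent was found by panning a naive human phage display library on the peptide. Variants in AAYL49 differ from the parent at up to three CDR positions; double and triple changes were sampled at random. Affinity was read by AlphaSeq, a pooled yeast mating assay with surface-displayed partners. After mating in shaken culture at 30 °C for 16 h, diploids were selected and their barcode pairs sequenced. A regression on co-assayed BCL2-family reference pairs converts the normalised counts of each replicate to an apparent Kd. The assay was run in three technical replicates.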

Substitutions are numbered in sequence along the VH above, starting at 1 (not Kabat).
Every variant below is changed at Y52 of the VH (sequential numbering).
The Kd shown is the geometric mean over detected replicates; a lower Kd is a better binder.
An entry "nd" has no value in the source: the pair was not observed among the diploids in any replicate. This suggests poor binding but is not conclusive.
In this assay the parent's reference entry averaged 4.4 nM; its copy inside this library read 13 µM (one replicate of three).
Background: pairings of library AAYL49 with three empty control strains gave a value in 15% of cases (median 11 µM, 5th percentile 680 nM). Values in that range, when seen in few replicates, are hard to tell from nonspecific mating.

Y52H+T58W+Y60E: 22 µM (1 of 3 replicates).
Y32T+Y52C+F105K: 57 µM (1 of 3 replicates).
Y52K+S63F: nd (0 of 3 replicates).
Y52G+R57Y+F105C: nd (0 of 3 replicates).
I34W+Y52C+R57P: nd (0 of 3 replicates).
Y52P+D62G+F105T: 45 µM (1 of 3 replicates).
N30R+Y52W+G99H: nd (0 of 3 replicates).
Y52V+R57A+D62E: nd (0 of 3 replicates).
S31Q+I34V+Y52E: nd (0 of 3 replicates).
Y32A+Y52L: 9.0 µM (1 of 3 replicates).
V50T+Y52H+S53Y: 130 µM (1 of 3 replicates).
T28V+S35I+Y52I: 2.4 µM (1 of 3 replicates).
Y52R+R57P+F59A: 96 µM (2 of 3 replicates).
Y52R+G61Q+K65E: 16 µM (1 of 3 replicates).
Y52V+G61L+F105R: 8.1 µM (1 of 3 replicates).
N30M+Y52D+S63Q: nd (0 of 3 replicates).
Y52C+S53M: nd (0 of 3 replicates).
Y52R+S63C: nd (0 of 3 replicates).
N30T+Y52H+F105R: 40 µM (1 of 3 replicates).
N30T+Y52A+R100K: 4.9 µM (2 of 3 replicates).
F27P+N30H+Y52H: 230 µM (2 of 3 replicates).
T28F+Y52S+A102M: 63 µM (2 of 3 replicates).
Y52C+T58R+T104Y: nd (0 of 3 replicates).
Y52D+G55A: nd (0 of 3 replicates).
G26P+I34A+Y52C: nd (0 of 3 replicates).
F27C+Y52N+D62S: 180 µM (2 of 3 replicates).
Y52L+R56Q+K65V: 3.9 µM (1 of 3 replicates).
S31Q+Y52M+A102D: 24 µM (2 of 3 replicates).
Y52P+T58M+V64I: nd (0 of 3 replicates).
I34S+I51T+Y52E: nd (0 of 3 replicates).
G33V+Y52Q+R56I: 15 µM (1 of 3 replicates).
Y52L+V64W: 850 nM (1 of 3 replicates).

Values reported by Engelhart et al. 2022, doi:10.1038/s41597-022-01779-4 (FLAb copy).